Tested on: BFTE cells
Assay: Cytotoxicity for BFTE cells at the concentrations evaluated
Assay type: cell-based, bovine
Settings: at the concentrations evaluated (5-1000 μg/ml)
Description: Primary BFTE cell cultures were prepared from bovine fallopian tubes (FT). Fat was trimmed from the serosal surfaces, mucus was gently squeezed from the lumens, and FT were decontaminated by being submerged in 70% ethanol for 30 seconds. The FT were then transferred to sterile culture petri dishes containing HBSS and washed twice. The BFTE cells were harvested either by flushing the FT with HBSS, using a 10 ml syringe equipped with a mouse feeding needle, or by opening the FT lengthwise with scissors and scraping the mucosal surfaces. The BFTE cells were subsequently washed in HBSS by centrifugation at 200×g (force of gravity) for 10 minutes, planted in 75-cm^2 flasks containing RPMI 1640 and cultured in a 5% CO2 incubator at 37° C. for 72 to 120 hours. […]
The anticryptosporidial potential of the protease inhibitor AAT was evaluated in a BFTE cell culture system inoculated with C. parvum oocysts in accordance with the methods detailed in Example I. AAT concentrations of 5, 10, 50 100, and 500 micrograms per milliliter ("μg/ml") in RPMI medium were mixed with C. parvum oocysts and used to inoculate BFTE cell monolayers. […] Results, as set out in Table 1, represent the mean number of parasites counted per treatment group expressed as a percent, plus or minus the standard deviation, of the mean number of parasites counted in the infection control group.

aprotinin
Cytotoxicity for BFTE cells: no evidence of cytotoxicity
